# Laboratory results reported in PubChem BioAssay AID880 (National Center for Advancing Translational Sciences (NCATS), 2007).
# Protein sequences, listed by entry. Tags and fused reporters are not part of them.
# UniProt P63096, whole entry, looked up: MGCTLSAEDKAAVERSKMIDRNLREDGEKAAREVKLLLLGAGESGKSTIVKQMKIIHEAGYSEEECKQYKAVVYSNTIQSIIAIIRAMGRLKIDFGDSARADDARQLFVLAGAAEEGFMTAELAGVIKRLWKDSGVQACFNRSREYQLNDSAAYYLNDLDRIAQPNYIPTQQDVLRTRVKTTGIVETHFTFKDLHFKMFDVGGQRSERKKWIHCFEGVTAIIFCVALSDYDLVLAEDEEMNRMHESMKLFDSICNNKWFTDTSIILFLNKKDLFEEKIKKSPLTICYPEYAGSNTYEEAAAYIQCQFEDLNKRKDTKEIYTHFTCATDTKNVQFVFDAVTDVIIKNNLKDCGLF
# This is a selection; strong and weak results do not stand in their true shares. Active and inactive are the calls of the source. Calls come from the whole dose curve; as a rule, active = well fitted inhibition curve with a large enough effect (not every such curve was filed as active); inactive = no such curve, though single readings can be large or run the other way.
# Molecular target: Guanine nucleotide-binding protein G(i) subunit alpha-1 (Homo sapiens) (UniProt P63096)
# Experiment: qHTS Assay for Inhibitors of RGS12 GoLoco Motif Activity (Red Fluorophore); note: nearly all actives have a fitted effect of over 30% in size
# Conditions: Gai1:RGS12 GoLoco peptide FP, rhodamine, 10 min
# Description: Assay Submitter: Siderovski, David P, University of North Carolina at Chapel Hill
# Screening Center PI: Austin, C.P.
# Screening Center: NIH Chemical Genomics Center [NCGC]
# G-protein-coupled receptors (GPCRs) are major targets for drug discovery. The regulator of G-protein signaling (RGS)-protein family has important roles in GPCR signal transduction. RGS proteins contain a conserved RGS-box, which is often accompanied by other signaling regulatory elements. RGS proteins accelerate the deactivation of G proteins to reduce GPCR signaling; however, some also have an effector function and transmit signals. Combining GPCR agonists with RGS inhibitors should potentiate responses, and could markedly increase the agonist's regional specificity. The diversity of RGS proteins with highly localized and dynamically regulated distributions in brain makes them attractive targets for pharmacotherapy of central nervous system disorders. […] Inhibitors of the binding are detected by a decrease in the fluorescence polarization (FP) of the fluorophore. […]
# Four uL of reagents were dispensed to 1536-well Greiner black solid-bottom plates. […] The plates were incubated for 10 min at room temperature, and then read on ViewLux (Perkin-Elmer) High-throughput CCD imager using BODIPY for the rhodamine-labeled decapeptide probe. […]
# Potency is the fitted concentration of half-maximal effect.
row,SMILES,Potency
1,O=P(Nc1nccs1)(c1ccccc1)c1nc2ccccc2s1 (configuration not stated),active: 2 µM
2,Nc1cccc2c([As](=O)(O)O)cccc12,active: 22.4 µM
